Patent US20050234066A1, “Alpha substituted carboxylic acids” (Agouron Pharmaceuticals, Inc., priority 2004, published 2005)
Where “and” joins values, the source holds several entries; their conditions need not be identical. Identical values can stand only once.

The chains behind the UniProt entries cited, without tags or fusion partners.
UniProt Q07869, whole entry: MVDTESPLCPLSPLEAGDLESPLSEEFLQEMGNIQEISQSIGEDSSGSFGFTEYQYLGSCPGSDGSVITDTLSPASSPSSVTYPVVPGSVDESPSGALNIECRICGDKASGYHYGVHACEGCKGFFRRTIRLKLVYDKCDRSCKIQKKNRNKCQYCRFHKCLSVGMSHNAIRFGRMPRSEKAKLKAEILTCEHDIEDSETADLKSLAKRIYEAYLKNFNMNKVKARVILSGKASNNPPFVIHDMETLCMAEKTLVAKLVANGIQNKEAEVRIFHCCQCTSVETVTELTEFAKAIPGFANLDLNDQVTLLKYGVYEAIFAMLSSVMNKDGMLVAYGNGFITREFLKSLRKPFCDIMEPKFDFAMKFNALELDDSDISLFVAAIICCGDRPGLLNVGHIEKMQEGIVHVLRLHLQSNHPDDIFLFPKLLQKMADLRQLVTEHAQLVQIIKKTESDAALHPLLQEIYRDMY
UniProt P37231, whole entry: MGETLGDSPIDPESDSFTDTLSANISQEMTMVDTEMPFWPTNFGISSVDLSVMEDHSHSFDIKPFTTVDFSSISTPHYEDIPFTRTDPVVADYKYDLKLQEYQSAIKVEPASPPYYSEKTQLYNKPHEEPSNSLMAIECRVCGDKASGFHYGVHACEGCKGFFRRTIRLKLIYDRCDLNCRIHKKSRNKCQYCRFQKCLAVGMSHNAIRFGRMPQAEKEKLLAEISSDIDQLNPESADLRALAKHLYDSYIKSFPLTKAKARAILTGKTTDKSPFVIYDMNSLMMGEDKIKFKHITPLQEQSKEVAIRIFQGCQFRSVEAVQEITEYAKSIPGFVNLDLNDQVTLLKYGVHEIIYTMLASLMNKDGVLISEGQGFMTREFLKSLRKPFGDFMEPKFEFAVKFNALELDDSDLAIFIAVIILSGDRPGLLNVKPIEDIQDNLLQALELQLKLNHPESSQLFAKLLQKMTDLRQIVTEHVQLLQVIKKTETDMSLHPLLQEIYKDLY

What was measured:
PPAR-α = PPAR-α (Homo sapiens, UniProt Q07869); assay: Scintillation Proximity Assay (SPA), displacement of 3H labeled GW2331; assay type: binding; settings: read-out: PPAR-alpha Ki, 3H GW2331 displacement
PPAR-γ = PPAR-γ (Homo sapiens, UniProt P37231); assay: Scintillation Proximity Assay (SPA), displacement of 3H labeled darglitazone; assay type: binding; settings: read-out: PPAR-gamma Ki, 3H darglitazone displacement

Row | Structure (SMILES) | Ki (PPAR-α) [nM] | Ki (PPAR-γ)
1 | Cc1oc(-c2ccccc2)nc1CCCc1ccc(CC2(C(=O)O)CCCO2)cn1 (single isomer, unassigned) | 4200 | 470 nM
2 | CCOC(Cc1ccc(OCCc2nc(-c3ccccc3)sc2C)cn1)C(=O)O (single isomer, unassigned) | 670 | –
3 | COc1ccc(-c2nc(CCOc3ccc(CC4(C(=O)O)CCCO4)nc3)c(C)o2)cc1 (single isomer, unassigned) | 400 | –
4 | CCOC(Cc1cccc(-c2cccc(OCCc3nc(-c4ccccc4)oc3C)c2)c1)C(=O)O (single isomer, unassigned) [A-28 E/M] | 930 | 44 nM
5 | COC(C)(Cc1ccc(OCCc2nc(-c3ccccc3)oc2C)cn1)C(=O)O (single isomer, unassigned) | 3000 | 1200 nM and 690 nM
6 | CCOC(Cc1ccc(OCCc2nc(-c3ccccc3)oc2C)cn1)C(=O)O (single isomer, unassigned) [D-23 E/M] | 6500 | –
7 | Cc1sc(-c2ccccc2)nc1CCOc1ccc(CC2(C(=O)O)CCCO2)cn1 (stereo not drawn) | 250 | 44 nM
8 | CCC(Oc1cccc(-c2cccc(OCCc3nc(-c4ccccc4)oc3C)c2)c1)C(=O)O (single isomer, unassigned) [A-05 E/M] | 2600 | 330 nM
9 | CCOC(Cc1ccc(OCCc2nc(-c3ccccc3)oc2C)cn1)C(=O)O (single isomer, unassigned) [D-23 S/E] | 1100 | –
10 | Cc1oc(-c2ccccc2)nc1CCOc1ccc(CC2(C(=O)O)CCCO2)cc1 (single isomer, unassigned) | 14 | –
